Patent US8114862B2, “TGR5 modulators and methods of use thereof” (Intercept Pharmaceuticals, Inc., priority 2008, dated 2012)

Columns and labels:
[1] = Biliary secretion and hepatic metabolism in bile fistula rat after femoral infusion (Example 22); assay type: in vivo; conditions: iv infusion

Row | SMILES | hepatic metabolism [1] | hepatic metabolism (iv and id administration) | intestinal absorption (summary of Example 12)
1 | CC[C@H]1[C@@H](O)[C@@H]2[C@H](C[C@H](O)[C@]3(C)[C@@H]([C@H](C)C[C@@H](C)C(=O)O)CC[C@@H]23)[C@@]2(C)CC[C@@H](O)C[C@@H]12 [Ii3e, 6α-ethyl-(23R)-methyl-3α,7α,12α trihydroxy-5β-cholan-24-oic acid] | metabolized by the liver more extensively than compound Ih3e | – | –
2 | CC[C@H]1[C@@H](O)[C@@H]2[C@H](C[C@H](O)[C@]3(C)[C@@H]([C@H](C)C[C@H](C)C(=O)O)CC[C@@H]23)[C@@]2(C)CC[C@@H](O)C[C@@H]12 [Ih3e, 6α-ethyl-(23S)-methyl-3α,7α,12α trihydroxy-5β-cholan-24-oic acid] | only slightly metabolized by the liver | only slightly metabolized by the liver | efficient, even if it is not complete

Like-named read-outs stand apart in the source and are kept apart here.
